Assay results: ChEMBL document CHEMBL1123583 (J Med Chem, 1987)

Protein sequences, listed by entry. Tags and fused reporters are not part of them.
UniProt P47747, whole entry: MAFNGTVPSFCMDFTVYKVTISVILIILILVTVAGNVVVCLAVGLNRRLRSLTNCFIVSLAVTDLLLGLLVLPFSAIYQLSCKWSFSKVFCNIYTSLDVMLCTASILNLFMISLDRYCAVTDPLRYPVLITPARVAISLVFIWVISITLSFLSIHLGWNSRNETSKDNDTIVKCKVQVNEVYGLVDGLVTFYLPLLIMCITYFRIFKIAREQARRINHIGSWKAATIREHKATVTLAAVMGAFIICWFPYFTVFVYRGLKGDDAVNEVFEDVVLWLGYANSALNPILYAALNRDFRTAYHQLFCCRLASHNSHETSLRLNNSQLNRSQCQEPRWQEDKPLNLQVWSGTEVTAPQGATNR

How the values were obtained:
Histamine H2 receptor [1] = target: T1, Histamine H2 receptor (Cavia porcellus, UniProt P47747); experiment: Antagonistic activity against Histamine H2 receptor expressed as the charge of receptor sensitivity was determined at pH 7.8; type: functional; conditions: read-out: pA2 (converted)
Histamine H2 receptor [2] = target: T1, Histamine H2 receptor; experiment: Antagonistic activity against Histamine H2 receptor expressed as the charge of receptor sensitivity was determined at pH 7.0; type: functional; conditions: read-out: pA2 (converted)

How did the Kb (Histamine H2 receptor [1]) turn out when `CN/C(=N/CCSCc1nc[nH]c1C)NC#N` [CIMETIDINE] was run?
The Kb was 0.372 µM.

What about the Kb (Histamine H2 receptor [2]) of the same compound?
The Kb was 0.955 µM.
